# Test results from patent US9346815B2, “5-chloro-2-difluoromethoxyphenyl pyrazolopyrimidine compounds, compositions and methods of use thereof” (Genentech, Inc., priority 2014, dated 2016).
# By UniProt entry, the sequences of proteins in these tests, tags left out. Residues count along the entry.
# UniProt O60674, 849-1124: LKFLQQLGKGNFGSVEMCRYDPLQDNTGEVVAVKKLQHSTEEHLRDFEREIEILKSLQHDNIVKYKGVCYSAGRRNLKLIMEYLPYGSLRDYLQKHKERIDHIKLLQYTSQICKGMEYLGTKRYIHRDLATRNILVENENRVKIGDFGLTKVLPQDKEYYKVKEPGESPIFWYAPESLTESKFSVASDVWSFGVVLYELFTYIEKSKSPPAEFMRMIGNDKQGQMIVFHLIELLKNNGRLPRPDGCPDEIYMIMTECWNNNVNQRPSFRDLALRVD
# Biological target: isolated recombinant JAK2 kinase domain (Homo sapiens (Human), UniProt O60674)
# Experiment: JAK2 enzyme assay (Caliper LabChip, peptide phosphorylation)
# Assay type: biochemical
# Conditions: 25 μM ATP
row,Ki [nM],Structure (SMILES)
1,1.26,"CN1CCC2(CC1)CN(C(=O)Cn1cc(NC(=O)c3c(N)nn4cccnc34)c(-c3cc(Cl)ccc3OC(F)F)n1)CCO2 [Example 215, 2-amino-N-[3-[5-chloro-2-(difluoromethoxy)phenyl]-1-[2-(9-methyl-1-oxa-4,9-diazaspiro[5.5]undecan-4-yl)-2-oxo-ethyl]pyrazol-4-yl]pyrazolo[1,5-a]pyrimidine-3-carboxamide]"
2,2.03,"O=C(Nc1sc(CN2CCCCC2)nc1-c1cc(Cl)ccc1OC(F)F)c1cnn2cccnc12 [Example 263, N-[4-[5-chloro-2-(difluoromethoxy)phenyl]-2-(1-piperidylmethyl)thiazol-5-yl]pyrazolo[1,5-a]pyrimidine-3-carboxamide]"
3,0.84,"CN1CCN(C2CCN(C(=O)Cn3cc(NC(=O)c4cnn5cccnc45)c(-c4cc(Cl)ccc4OC(F)F)n3)CC2)CC1=O [Example 416, N-(3-(5-chloro-2-(difluoromethoxy)phenyl)-1-(2-(4-(4-methyl-3-oxopiperazin-1-yl)piperidin-1-yl)-2-oxoethyl)-1H-pyrazol-4-yl)pyrazolo[1,5-a]pyrimidine-3-carboxamide]"
4,1.68,"CN1CC2(CCN(C(=O)Cn3cc(NC(=O)c4cnn5cccnc45)c(-c4cc(Cl)ccc4OC(F)F)n3)C2)C1 [Example 221, N-[3-[5-chloro-2-(difluoromethoxy)phenyl]-1-[2-(2-methyl-2,6-diazaspiro[3.4]octan-6-yl)-2-oxo-ethyl]pyrazol-4-yl]pyrazolo[1,5-a]pyrimidine-3-carboxamide]"
5,0.96,"CN1CCN(C/C=C/Cn2cc(NC(=O)c3cnn4cccnc34)c(-c3cc(Cl)ccc3OC(F)F)n2)CC1 [Example 395, N-[3-[5-chloro-2-(difluoromethoxy)phenyl]-1-[(2E)-4-(4-methylpiperazin-1-yl)but-2-en-1-yl]-1H-pyrazol-4-yl]pyrazolo[1,5-a]pyrimidine-3-carboxamide]"
6,1.2,"CN(C1CCN(C(=O)Cn2cc(NC(=O)c3cnn4cccnc34)c(-c3cc(Cl)ccc3OC(F)F)n2)CC1)[C@@H]1CCOC1 [Example 432, N-(3-(5-chloro-2-(difluoromethoxy)phenyl)-1-(2-(4-(methyl((R)-tetrahydrofuran-3-yl)amino)piperidin-1-yl)-2-oxoethyl)-1H-pyrazol-4-yl)pyrazolo[1,5-a]pyrimidine-3-carboxamide]"
7,0.26,"CN1CCC2CN(C(=O)Cn3cc(NC(=O)c4c(N)nn5cccnc45)c(-c4cc(Cl)ccc4OC(F)F)n3)CCC21 (stereo not shown) [Example 56, 2-amino-N-[3-[5-chloro-2-(difluoromethoxy)phenyl]-1-[2-(1-methyl-3,3a,4,6,7,7a-hexahydro-2H-pyrrolo[3,2-c]pyridin-5-yl)-2-oxo-ethyl]pyrazol-4-yl]pyrazolo[1,5-a]pyrimidine-3-carboxamide]"
8,0.14,"Nc1nn2cccnc2c1C(=O)Nc1cn(C2CCN(CCCC(=O)N3CCOCC3)CC2)nc1-c1cc(Cl)ccc1OC(F)F [Example 147, 2-amino-N-[3-[5-chloro-2-(difluoromethoxy)phenyl]-1-[1-(4-morpholino-4-oxo-butyl)-4-piperidyl]pyrazol-4-yl]pyrazolo[1,5-a]pyrimidine-3-carboxamide]"
9,0.84,"CN(C)C1CCN(c2nc(-c3cc(Cl)ccc3OC(F)F)c(NC(=O)c3cnn4cccnc34)s2)CC1 [Example 188, Pyrazolo[1,5-a]pyrimidine-3-carboxylic acid [4-(5-chloro-2-difluoromethoxy-phenyl)-2-(4-dimethylamino-piperidin-1-yl)-thiazol-5-yl]-amide]"
10,0.36,"O=C(O)CCN1CCN(C(=O)Cn2cc(NC(=O)c3cnn4cccnc34)c(-c3cc(Cl)ccc3OC(F)F)n2)CC1 [Example 353, 3-[4-(2-[3-[5-chloro-2-(difluoromethoxy)phenyl]-4-[pyrazolo[1,5-a]pyrimidine-3-amido]-1H-pyrazol-1-yl]acetyl)piperazin-1-yl]propanoic acid]"
11,2.58,"O=C(Nc1cn(CC(=O)N2CCC(NCCc3ccc(C(F)(F)F)cc3)CC2)nc1-c1cc(Cl)ccc1OC(F)F)c1cnn2cccnc12 [Example 93, N-[3-[5-chloro-2-(difluoromethoxy)phenyl]-1-[2-oxo-2-[4-[2-[4-(trifluoromethyl)phenyl]ethylamino]-1-piperidyl]ethyl]pyrazol-4-yl]pyrazolo[1,5-a]pyrimidine-3-carboxamide]"
12,0.84,"COCCN1CCN(C(=O)Cn2cc(NC(=O)c3cnn4cccnc34)c(-c3cc(Cl)ccc3OC(F)F)n2)CC1 [Example 229, N-[3-[5-chloro-2-(difluoromethoxy)phenyl]-1-[2-[4-(2-methoxyethyl)piperazin-1-yl]-2-oxo-ethyl]pyrazol-4-yl]pyrazolo[1,5-a]pyrimidine-3-carboxamide]"
13,1.92,"CN(CC1(C)OCCO1)C1CCN(C(=O)Cn2cc(NC(=O)c3cnn4cccnc34)c(-c3cc(Cl)ccc3OC(F)F)n2)CC1 [Example 438, N-(3-(5-chloro-2-(difluoromethoxy)phenyl)-1-(2-(4-(methyl((2-methyl-1,3-dioxolan-2-yl)methyl)amino)piperidin-1-yl)-2-oxoethyl)-1H-pyrazol-4-yl)pyrazolo[1,5-a]pyrimidine-3-carboxamide]"
14,0.71,"O=C(Nc1cn(CC(O)CN2CCOCC2)nc1-c1cc(Cl)ccc1OC(F)F)c1cnn2cccnc12 (stereo not shown) [Example 403, N-(3-(5-chloro-2-(difluoromethoxy)phenyl)-1-(2-hydroxy-3-morpholinopropyl)-1H-pyrazol-4-yl)pyrazolo[1,5-a]pyrimidine-3-carboxamide]"
15,1.87,"CN(C)C1CCN(C(=O)Cn2cc(NC(=O)c3cnn4cccnc34)c(-c3cc(Cl)ccc3OC(F)F)n2)CC1 [Example 67, N-[3-[5-chloro-2-(difluoromethoxy)phenyl]-1-[2-[4-(dimethylamino)-1-piperidyl]-2-oxo-ethyl]pyrazol-4-yl]pyrazolo[1,5-a]pyrimidine-3-carboxamide]"
16,1.29,"CSCCOC(=O)CNCCn1cc(NC(=O)c2cnn3cccnc23)c(-c2cc(Cl)ccc2OC(F)F)n1 [Example 396, 2-(methylthio)ethyl 2-(2-(3-(5-chloro-2-(difluoromethoxy)phenyl)-4-(pyrazolo[1,5-a]pyrimidine-3-carboxamido)-1H-pyrazol-1-yl)ethylamino)acetate]"
17,0.15,"CN1C[C@H]2C[C@@H]1CN2C(=O)Cn1cc(NC(=O)c2c(N)nn3cccnc23)c(-c2cc(Cl)ccc2OC(F)F)n1 [Example 252, 2-amino-N-[3-[5-chloro-2-(difluoromethoxy)phenyl]-1-[2-[(1R,4R)-5-methyl-2,5-diazabicyclo[2.2.1]heptan-2-yl]-2-oxo-ethyl]pyrazol-4-yl]pyrazolo[1,5-a]pyrimidine-3-carboxamide]"
18,0.96,"O=C(CN1CCOCC1)Cn1cc(NC(=O)c2cnn3cccnc23)c(-c2cc(Cl)ccc2OC(F)F)n1 [Example 412, N-(3-(5-chloro-2-(difluoromethoxy)phenyl)-1-(3-morpholino-2-oxopropyl)-1H-pyrazol-4-yl)pyrazolo[1,5-a]pyrimidine-3-carboxamide]"
19,1.78,"NC1CCN(C(=O)Cn2cc(NC(=O)c3cnn4cccnc34)c(-c3cc(Cl)ccc3OC(F)F)n2)CC1 [Example 66, N-[1-[2-(4-amino-1-piperidyl)-2-oxo-ethyl]-3-[5-chloro-2-(difluoromethoxy)phenyl]pyrazol-4-yl]pyrazolo[1,5-a]pyrimidine-3-carboxamide]"
